Measurements published in article PMC9369419 (International Journal of Molecular Sciences, 2022).

Sequences of proteins named here, by UniProt entry; tags and fusion partners are left off. Residues count along the entry.
UniProt P22756, 31-949 limits assumed: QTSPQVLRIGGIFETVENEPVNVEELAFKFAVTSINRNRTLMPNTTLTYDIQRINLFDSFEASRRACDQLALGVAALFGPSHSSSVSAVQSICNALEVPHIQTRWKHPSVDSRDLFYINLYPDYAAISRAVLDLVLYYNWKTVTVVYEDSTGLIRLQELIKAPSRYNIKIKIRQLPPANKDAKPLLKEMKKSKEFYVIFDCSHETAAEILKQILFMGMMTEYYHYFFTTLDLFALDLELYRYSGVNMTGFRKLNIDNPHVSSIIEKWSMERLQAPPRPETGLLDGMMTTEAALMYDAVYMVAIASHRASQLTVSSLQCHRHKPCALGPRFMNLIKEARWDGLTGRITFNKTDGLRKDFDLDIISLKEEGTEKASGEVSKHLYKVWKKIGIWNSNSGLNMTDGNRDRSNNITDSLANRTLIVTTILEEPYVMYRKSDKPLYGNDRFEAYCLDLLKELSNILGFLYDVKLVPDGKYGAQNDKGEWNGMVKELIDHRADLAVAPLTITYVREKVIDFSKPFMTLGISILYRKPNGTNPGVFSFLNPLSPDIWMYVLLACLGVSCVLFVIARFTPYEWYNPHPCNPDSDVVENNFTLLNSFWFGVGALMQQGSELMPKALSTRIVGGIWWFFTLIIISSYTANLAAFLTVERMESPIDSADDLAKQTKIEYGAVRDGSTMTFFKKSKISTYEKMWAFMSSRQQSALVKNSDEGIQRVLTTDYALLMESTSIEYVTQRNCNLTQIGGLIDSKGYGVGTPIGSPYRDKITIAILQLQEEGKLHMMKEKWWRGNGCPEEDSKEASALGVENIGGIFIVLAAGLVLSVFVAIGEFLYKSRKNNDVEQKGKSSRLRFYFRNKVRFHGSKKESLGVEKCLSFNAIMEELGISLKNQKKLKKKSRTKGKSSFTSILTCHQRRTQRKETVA
UniProt P42264, 32-919 limits assumed: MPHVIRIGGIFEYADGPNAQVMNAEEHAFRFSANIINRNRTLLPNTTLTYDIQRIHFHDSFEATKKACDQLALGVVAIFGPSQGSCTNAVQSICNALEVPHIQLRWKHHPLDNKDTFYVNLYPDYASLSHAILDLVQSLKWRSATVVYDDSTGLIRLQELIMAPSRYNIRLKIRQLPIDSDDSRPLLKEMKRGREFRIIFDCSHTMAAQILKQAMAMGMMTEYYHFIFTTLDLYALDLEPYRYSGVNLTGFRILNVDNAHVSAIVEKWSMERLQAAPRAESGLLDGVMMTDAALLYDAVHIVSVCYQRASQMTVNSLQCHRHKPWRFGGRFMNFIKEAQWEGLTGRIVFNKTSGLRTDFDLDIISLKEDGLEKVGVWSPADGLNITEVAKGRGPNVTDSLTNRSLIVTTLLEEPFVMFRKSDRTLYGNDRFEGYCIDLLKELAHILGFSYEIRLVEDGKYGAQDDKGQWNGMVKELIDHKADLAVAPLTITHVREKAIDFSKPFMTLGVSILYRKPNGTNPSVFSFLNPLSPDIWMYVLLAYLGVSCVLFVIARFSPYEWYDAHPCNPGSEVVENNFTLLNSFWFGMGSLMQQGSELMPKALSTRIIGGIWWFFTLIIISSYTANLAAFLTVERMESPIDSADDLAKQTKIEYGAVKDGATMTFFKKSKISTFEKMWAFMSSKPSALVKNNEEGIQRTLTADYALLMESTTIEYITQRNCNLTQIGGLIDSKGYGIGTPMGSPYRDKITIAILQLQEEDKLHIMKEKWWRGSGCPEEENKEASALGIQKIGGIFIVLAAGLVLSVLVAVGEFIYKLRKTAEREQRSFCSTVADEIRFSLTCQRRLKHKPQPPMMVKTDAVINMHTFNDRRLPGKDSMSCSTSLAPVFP
UniProt P42260, 32-908 limits assumed: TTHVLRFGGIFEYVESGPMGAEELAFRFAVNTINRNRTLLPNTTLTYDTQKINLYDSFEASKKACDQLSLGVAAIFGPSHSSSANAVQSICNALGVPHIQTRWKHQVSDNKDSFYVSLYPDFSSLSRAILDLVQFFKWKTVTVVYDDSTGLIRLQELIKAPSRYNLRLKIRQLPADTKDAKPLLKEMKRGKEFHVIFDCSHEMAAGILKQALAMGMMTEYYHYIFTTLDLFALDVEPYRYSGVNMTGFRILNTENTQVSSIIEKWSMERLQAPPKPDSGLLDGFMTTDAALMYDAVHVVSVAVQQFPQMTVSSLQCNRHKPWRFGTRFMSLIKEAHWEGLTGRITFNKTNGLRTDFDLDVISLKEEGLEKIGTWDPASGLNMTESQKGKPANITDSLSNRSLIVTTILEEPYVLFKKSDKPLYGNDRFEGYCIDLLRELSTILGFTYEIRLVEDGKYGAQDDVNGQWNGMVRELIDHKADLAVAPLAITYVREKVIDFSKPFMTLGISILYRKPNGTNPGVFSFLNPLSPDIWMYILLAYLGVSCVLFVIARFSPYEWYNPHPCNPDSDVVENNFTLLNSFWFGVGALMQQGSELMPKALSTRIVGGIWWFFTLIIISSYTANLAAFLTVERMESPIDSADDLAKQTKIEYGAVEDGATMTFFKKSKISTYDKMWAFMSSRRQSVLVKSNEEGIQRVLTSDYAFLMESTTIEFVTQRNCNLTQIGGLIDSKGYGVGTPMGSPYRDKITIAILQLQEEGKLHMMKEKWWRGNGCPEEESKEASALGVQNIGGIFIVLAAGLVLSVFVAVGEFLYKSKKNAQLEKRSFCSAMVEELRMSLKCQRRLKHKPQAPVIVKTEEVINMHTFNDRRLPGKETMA
UniProt Q63273, 15-979 limits assumed: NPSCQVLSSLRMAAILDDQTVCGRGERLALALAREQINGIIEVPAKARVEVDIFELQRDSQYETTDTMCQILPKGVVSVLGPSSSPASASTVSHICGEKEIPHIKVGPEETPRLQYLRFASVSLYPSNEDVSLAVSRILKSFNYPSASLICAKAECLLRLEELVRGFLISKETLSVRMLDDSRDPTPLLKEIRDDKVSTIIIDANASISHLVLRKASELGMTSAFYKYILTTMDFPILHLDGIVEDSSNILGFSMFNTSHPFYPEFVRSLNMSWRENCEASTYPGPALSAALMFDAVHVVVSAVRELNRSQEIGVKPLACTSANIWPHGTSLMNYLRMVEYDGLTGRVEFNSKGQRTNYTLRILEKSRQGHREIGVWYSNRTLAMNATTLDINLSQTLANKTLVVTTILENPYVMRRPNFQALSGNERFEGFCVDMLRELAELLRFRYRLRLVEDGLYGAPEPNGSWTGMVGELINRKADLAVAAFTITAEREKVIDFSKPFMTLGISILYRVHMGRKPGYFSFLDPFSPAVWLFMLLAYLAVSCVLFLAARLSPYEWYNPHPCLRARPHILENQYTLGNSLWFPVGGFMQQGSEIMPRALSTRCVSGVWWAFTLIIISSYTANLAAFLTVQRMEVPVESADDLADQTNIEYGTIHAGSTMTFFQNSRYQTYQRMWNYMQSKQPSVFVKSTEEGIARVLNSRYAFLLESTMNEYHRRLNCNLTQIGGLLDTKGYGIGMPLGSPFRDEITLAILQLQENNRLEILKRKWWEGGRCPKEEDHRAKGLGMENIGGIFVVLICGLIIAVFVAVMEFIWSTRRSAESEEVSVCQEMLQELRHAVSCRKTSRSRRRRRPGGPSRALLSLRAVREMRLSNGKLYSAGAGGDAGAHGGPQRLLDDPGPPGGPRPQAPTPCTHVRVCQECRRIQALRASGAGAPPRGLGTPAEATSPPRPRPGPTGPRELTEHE
UniProt P19491, 22-883 limits assumed: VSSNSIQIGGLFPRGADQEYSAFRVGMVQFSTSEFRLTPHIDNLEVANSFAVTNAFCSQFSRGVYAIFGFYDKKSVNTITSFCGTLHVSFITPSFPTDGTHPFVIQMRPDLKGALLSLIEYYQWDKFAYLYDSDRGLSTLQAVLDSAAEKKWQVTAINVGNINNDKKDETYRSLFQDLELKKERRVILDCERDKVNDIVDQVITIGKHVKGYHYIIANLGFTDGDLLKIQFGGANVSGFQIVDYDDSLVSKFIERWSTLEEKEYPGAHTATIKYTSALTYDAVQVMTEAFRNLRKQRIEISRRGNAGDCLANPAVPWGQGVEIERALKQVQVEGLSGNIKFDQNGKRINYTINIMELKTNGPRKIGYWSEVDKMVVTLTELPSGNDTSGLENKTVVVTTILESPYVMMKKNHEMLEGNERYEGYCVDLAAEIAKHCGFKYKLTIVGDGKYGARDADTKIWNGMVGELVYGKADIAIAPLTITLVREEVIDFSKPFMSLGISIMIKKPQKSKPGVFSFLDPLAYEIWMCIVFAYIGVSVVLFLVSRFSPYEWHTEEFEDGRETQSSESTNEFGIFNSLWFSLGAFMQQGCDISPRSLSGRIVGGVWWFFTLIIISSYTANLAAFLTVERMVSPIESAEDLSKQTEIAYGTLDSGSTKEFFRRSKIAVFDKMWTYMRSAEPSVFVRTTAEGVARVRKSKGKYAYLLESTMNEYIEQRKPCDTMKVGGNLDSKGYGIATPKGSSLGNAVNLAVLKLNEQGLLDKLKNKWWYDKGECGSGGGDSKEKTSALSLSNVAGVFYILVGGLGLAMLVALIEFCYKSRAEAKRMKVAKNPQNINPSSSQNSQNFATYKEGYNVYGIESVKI

How the values were obtained:
GluK1 = GluK1 (Rattus norvegicus, UniProt P22756); assay: Radioligand binding at recombinant homomeric GluK1 in Sf9 membranes; settings: read-out: Ki GluK1, recombinant rat homomeric receptor, [3H]-(S)-NF608, mean ± SEM, tested form: H2O
GluK3 = GluK3 (Rattus norvegicus, UniProt P42264); assay: Radioligand binding at recombinant homomeric GluK3 in Sf9 membranes; settings: read-out: Ki GluK3, recombinant rat homomeric receptor, [3H]-kainic acid, mean ± SEM, tested form: H2O
GluK2 = GluK2 (Rattus norvegicus, UniProt P42260); assay: Radioligand binding at recombinant homomeric GluK2 in Sf9 membranes; settings: read-out: Ki GluK2, recombinant rat homomeric receptor, [3H]-kainic acid, mean ± SEM, tested form: H2O
GluK5 = GluK5 (Rattus norvegicus, UniProt Q63273); assay: Radioligand binding at recombinant homomeric GluK5 in Sf9 membranes; settings: read-out: Ki GluK5, recombinant rat homomeric receptor, [3H]-kainic acid, mean ± SEM, tested form: H2O
GluA2 = GluA2 (Rattus norvegicus, UniProt P19491); assay: Radioligand binding at recombinant homomeric GluA2 in Sf9 membranes; settings: read-out: Ki GluA2, recombinant rat homomeric receptor, [3H]-(RS)-AMPA, mean ± SEM, tested form: H2O

- Ki (GluK1): > 100 µM
- Ki (GluK3): 11 µM
- Ki (GluK2): > 100 µM
- Ki (GluK5): > 100 µM
- Ki (GluA2): > 100 µM
Structure (SMILES): O=C(Nn1c(=O)c(=O)[nH]c2cc(C#Cc3ccc(O)nc3)ccc21)c1ccccc1
